Measurements reported in ChEMBL document CHEMBL5725429, “P2X7 modulators” (2017).

Target: T1, P2X purinoceptor 7 (Rattus norvegicus, UniProt Q64663)
T1 sequence (Q64663 whole entry): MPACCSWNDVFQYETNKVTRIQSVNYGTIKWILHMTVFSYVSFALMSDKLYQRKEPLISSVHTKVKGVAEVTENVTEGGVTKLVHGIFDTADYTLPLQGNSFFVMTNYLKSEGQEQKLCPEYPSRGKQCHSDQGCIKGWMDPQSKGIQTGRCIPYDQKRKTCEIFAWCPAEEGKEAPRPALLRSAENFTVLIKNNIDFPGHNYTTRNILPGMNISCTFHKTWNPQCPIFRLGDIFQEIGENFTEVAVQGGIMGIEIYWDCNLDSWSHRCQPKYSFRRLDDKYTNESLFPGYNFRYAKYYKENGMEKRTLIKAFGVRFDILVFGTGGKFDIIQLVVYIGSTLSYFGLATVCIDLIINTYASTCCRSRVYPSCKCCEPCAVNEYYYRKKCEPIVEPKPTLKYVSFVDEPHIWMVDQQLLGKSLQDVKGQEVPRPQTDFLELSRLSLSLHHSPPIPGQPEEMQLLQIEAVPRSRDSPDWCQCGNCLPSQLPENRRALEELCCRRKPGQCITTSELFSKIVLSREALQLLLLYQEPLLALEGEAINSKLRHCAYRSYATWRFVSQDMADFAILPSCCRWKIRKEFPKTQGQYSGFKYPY
Assay: Ca2+ Flux Assay: 1321N1 cells expressing the recombinant human or rat P2X7 channel was cultured in HyQ DME/(HyClone/Dulbecco's Modified Eagle Medium) high glucose supplemented with 10% Fetal Bovine Serum (FBS) and appropriate selection marker. Cells were seeded at a density of 25000 cells/well (96-well clear bottom black walled plates) in 100 μl volume/well. On the day of the experiment, cell plates were washed with assay buffer, containing (in mM): 130 NaCl, 2 KCl, 1 CaCl2, 1 MgCl2, 10 HEPES, 5 glucose; pH 7.40 and 300 mOs. After the wash, cells were loaded with the Calcium-4 dye (Molecular Device) and incubated in the dark for 60 minutes. Test compounds were prepared at 250× the test concentration in neat DMSO. Intermediate 96-well compound plates were prepared by transferring 1.2 μL of the compound into 300 μL of assay buffer. A further 3× dilution occurred when transferring 50 μL/well of the compound plate to 100 μL/well in the cell plate. Cells were incubated with test compounds and dye for 30 minutes. Calcium dye fluorescence was monitored in FLIPR as the cells were challenged by adding 50 μL/well of BzATP (final concentration is 250 μM BzATP (human and rat)).
Assay type: cell-based

**Q.** `Cc1cccc(-c2nnc3n2C[C@H]2CCC[C@@H]3N2C(=O)c2cccc(C(F)(F)F)c2Cl)n1` (single isomer, unassigned) was tested. Which Ki did it give?
**A.** The Ki was 5 nM.
